Results on ten molecules are retold here after PubChem BioAssay AID619 (University of Pittsburgh Molecular Library Screening Center, 2007).

Chains of the proteins cited; added tags and fusions are not shown.
UniProt P53350, whole entry: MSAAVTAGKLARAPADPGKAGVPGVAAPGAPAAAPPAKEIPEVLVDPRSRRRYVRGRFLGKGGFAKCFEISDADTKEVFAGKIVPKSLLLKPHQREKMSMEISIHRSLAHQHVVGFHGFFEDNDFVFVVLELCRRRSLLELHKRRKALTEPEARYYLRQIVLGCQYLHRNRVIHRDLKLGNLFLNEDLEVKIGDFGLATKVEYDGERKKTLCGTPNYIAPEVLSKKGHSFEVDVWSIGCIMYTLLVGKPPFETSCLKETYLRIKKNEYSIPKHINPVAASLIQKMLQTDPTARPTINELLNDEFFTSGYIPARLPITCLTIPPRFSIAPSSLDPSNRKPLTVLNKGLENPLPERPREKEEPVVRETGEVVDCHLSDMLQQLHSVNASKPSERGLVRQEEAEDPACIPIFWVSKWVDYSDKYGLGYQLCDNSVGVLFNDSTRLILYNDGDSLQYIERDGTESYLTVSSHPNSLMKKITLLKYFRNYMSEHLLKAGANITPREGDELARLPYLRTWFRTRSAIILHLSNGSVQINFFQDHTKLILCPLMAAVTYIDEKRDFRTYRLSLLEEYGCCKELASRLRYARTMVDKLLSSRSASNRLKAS

This is a selection; strong and weak results do not stand in their true shares. Activity calls are given as the source filed them.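 Rule for the calls: active = inhibition of 50% or more in the single-concentration screen; inactive = inhibition below 50%.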

For this assay, the target named is Serine/threonine-protein kinase PLK1 (Homo sapiens) (UniProt P53350). The assay can be described thus: human PLK1 kinase inhibitors, primary screen, biochemical, TR-FRET (AID 619).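 Note: 0% = DMSO max control and 100% = H-89 dihydrochloride min control.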 To be noted: recombinant PLK1 kinase, TR-FRET peptide phosphorylation; at 10 µM; stronger effect = higher value. On the technique in general: In TR-FRET formats the signal depends on donor and acceptor labels being close together.
Turning to `CCOc1ncccc1C(=O)NCC1(N2CCOCC2)CCCCC1`, the inhibition (in general, the relative decrease from the control value, in per cent) is inactive: -5.04%. As to `CCC(CO)(C(=O)OC1CN2CCC1CC2)c1ccccc1` (stereo not given), the inhibition is inactive: -13.5%.

Consider `N/C(=N\O)c1c(N)no[n+]1[O-]`, for which the inhibition is inactive: -7.37%. For `c1ccc(CN2CCC(Nc3ccccc3)CC2)cc1`, the inhibition was inactive: -9.4%.

Turning to `N#CC1(Nc2ccccc2)CCN(CCc2ccccc2)CC1`, the inhibition is inactive: -8.05%.

`O=C(NCC1(N2CCOCC2)CCCCC1)c1cc(=O)[nH]c2ccccc12`: the inhibition is inactive: -11.1%. The same measure for `CN1CCC(Nc2cccc(F)c2)CC1`: inactive: -5.48%. Consider `O=C(NCC1(N2CCOCC2)CCCCC1)c1cc2ccccc2o1`, for which the inhibition is inactive: -12.4%. The same measure for `O=C(OC1CN2CCC1CC2)C1c2ccccc2Oc2ccccc21` (stereo not given): inactive: -2.37%; for `COc1ccc(NC2CCN(CCc3ccccc3)CC2)c(OC)c1`: inactive: -16.5%.
